Where “and” joins values, the source holds several entries; their conditions need not be identical. Equal entries are not always repeated.
Assays:
[1] = molecular target: T1, PI3Kα^WT (p110α/p85α) (Homo sapiens, UniProt P42336); assay: PI3K homogenous time-resolved fluorescence (HTRF) lipid kinase IC50 determination; type: biochemical; conditions: Table S1, this study; a = N=2 individual data shown, b = N=1
T1 construct: made in house; host or cells: Sf9 insect cells (baculovirus)
Method: (§1) IC50 values were determined using the PI3K homogenous time-resolved fluorescence assay (Merck Millipore, #33-016) following the manufacturer's instructions as previously described. […] Data was graphed and analysed with Graphpad Prism 6, nonlinear regression with log(inhibitor) vs. response and constraints set at 0% and 100%.
(§2) (1 picture or pasted object on this page, not shown here)
(§3) Enzymes were used at PI3KαWT 40 ng/ml, PI3KβWT as either 400 ng/ml or 300 ng/ml,
(§4) and PI3K δWT was 65 ng/ml. Plates were read on a PHERAStar HTS microplate reader

Amino acid sequences for entries named in this document (tags omitted). A change or cut given only in a name is not applied to a line headed by its entry.
UniProt P42336, whole entry: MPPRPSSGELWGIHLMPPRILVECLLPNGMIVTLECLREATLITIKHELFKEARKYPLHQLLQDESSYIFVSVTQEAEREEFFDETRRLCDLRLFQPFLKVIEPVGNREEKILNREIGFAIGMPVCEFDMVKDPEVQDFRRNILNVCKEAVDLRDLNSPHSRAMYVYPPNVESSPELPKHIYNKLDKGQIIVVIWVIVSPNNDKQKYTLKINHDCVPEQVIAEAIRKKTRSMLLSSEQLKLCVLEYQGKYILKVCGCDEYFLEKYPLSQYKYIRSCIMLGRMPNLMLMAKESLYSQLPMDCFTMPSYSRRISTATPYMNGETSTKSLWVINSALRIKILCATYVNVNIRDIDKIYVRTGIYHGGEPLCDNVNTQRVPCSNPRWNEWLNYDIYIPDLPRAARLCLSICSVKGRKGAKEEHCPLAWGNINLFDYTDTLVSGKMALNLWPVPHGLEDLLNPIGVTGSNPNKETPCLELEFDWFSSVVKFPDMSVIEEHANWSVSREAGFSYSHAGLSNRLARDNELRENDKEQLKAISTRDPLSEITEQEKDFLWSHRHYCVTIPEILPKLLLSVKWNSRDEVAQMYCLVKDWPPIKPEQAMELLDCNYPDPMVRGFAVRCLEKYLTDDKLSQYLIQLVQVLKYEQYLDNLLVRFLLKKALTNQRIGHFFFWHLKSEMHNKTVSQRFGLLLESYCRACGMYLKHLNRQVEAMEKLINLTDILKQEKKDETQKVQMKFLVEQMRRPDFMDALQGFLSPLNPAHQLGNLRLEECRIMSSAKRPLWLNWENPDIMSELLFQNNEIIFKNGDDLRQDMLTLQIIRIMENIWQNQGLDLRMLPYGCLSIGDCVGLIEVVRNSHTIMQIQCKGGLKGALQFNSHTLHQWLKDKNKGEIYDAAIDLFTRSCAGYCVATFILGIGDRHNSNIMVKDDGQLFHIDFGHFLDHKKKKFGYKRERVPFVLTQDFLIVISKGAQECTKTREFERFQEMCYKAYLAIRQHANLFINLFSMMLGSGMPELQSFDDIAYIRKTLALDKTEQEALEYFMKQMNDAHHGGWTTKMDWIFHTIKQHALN
UniProt O00329, whole entry, species assumed: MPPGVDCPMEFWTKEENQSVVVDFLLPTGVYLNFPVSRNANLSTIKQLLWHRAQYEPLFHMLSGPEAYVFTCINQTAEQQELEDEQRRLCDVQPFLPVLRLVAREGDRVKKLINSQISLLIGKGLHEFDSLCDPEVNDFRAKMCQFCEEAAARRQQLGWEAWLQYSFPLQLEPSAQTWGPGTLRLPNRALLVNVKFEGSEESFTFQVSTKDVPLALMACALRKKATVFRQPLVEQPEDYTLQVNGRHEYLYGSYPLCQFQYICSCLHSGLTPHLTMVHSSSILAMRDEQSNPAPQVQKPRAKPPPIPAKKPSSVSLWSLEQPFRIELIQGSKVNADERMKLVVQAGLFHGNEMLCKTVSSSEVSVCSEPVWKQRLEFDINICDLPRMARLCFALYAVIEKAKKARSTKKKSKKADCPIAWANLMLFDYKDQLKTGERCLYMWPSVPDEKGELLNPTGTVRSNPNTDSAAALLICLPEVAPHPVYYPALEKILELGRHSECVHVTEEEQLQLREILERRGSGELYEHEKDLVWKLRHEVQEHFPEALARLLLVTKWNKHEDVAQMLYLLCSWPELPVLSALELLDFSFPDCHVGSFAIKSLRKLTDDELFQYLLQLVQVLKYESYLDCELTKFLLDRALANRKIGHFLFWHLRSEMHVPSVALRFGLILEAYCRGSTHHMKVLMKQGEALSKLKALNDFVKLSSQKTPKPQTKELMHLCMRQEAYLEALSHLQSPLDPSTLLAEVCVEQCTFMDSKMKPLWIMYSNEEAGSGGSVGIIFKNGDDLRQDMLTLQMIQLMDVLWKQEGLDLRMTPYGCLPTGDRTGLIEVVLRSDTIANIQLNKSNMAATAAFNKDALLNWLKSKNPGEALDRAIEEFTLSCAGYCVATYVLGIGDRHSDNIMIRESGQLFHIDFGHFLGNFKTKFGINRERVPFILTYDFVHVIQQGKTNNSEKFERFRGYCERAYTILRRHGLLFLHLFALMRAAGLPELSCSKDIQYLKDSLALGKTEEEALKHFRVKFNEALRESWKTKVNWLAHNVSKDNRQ

[2] = molecular target: T2, PI3Kδ^WT (p110δ/p85α) (Homo sapiens, UniProt O00329); assay: PI3K HTRF lipid kinase IC50 determination; type: biochemical; conditions: Table S1, this study; a = N=2 individual data shown
T2 construct: made in house; host or cells: Sf9 insect cells (baculovirus)
Method: as §1, §2, §3, §4

IC50 [1]: 700 pM and 1300 pM
IC50 [2]: 700 pM and 1100 pM
SMILES: Cc1nc(-c2cn3c(n2)-c2ccc(-c4cnn(C(C)(C)C(N)=O)c4)cc2OCC3)n(C(C)C)n1 [GDC0032]

— paper PMC7617104 (Biochemical Journal, 2024)
